# Key:
# [1] = tested on: MDA-MB-231 cells; test: Lactate dehydrogenase (LDH) release assay; type: cell-based, Human; conditions: 10 μM, 2 h at pH 7.4 or pH 5.0, mean ± SD, n = 3
# Description: First, we assessed the effect of the conjugates on the integrity of cell membranes based on the uptake of Trypan Blue, which can be taken up by cells only if their plasma membrane is disrupted. […] We also measured the release of the intracellular enzyme lactate dehydrogenase (LDH) after peptide treatment, as another method to evaluate plasma membrane damage. […] Importantly, it was previously shown that neither pHLIP alone nor low pH treatments disrupts membranes, including that of MDA-MB-231 cells[20][23] (Figure S1).
# Figure 4 Effect of free peptides and pHLIP-conjugates on Plasma Membrane Integrity and Lactate Dehydrogenase (LDH) Release. (A) The integrity of the plasma membrane is assessed by the uptake of trypan blue dye. […] Cells were detached and counted based on trypan blue uptake with an hemacytometer: % of intact cells corresponds to the number of cells not showing any dye uptake over the total number of cells. […] Cell media supernatant was monitored for the presence of LDH following treatment. […]
# For the Trypan Blue plasma membrane integrity assays cells were seeded in 96-well plates at a density of 3,000 cells/well and incubated until confluent (~72 hours). […] After treatment, the media was removed, cells were detached using trypsin and counted based on trypan blue uptake using an hemacytometer. […] Percent LDH release was calculated against control cells treated with media at physiologic pH.
# [2] = tested on: MDA-MB-231 breast cancer cells; test: Anti-proliferation assay (MTT) after 2 h treatment at pH 7.4 or 5.0; type: cell-based, Human
# Description: We have previously shown that this treatment protocol and pHLIP alone have no effect on MDA-MB-231 cell viability.
# Figure 2 Inhibition of cell growth. MDA-MB-231 cells treated with 4-amino acid pHLIP-KLAKS conjugates. Black columns represent cells treated at pH 7.4 and cells treated at low pH are shown in grey. For each condition, 3,000 cells/well (96-well plate) were seeded, allowed to adhere overnight, treated for 2 hours, washed once with media and cultured for 72 hour in complete medium at physiologic pH. Cell viability was assessed with the MTT assay. All measurements were normalized to the media control (0 μM, pH 7.4), as 100% cell viability. Results are shown as mean ± SEM (n = 9–12).
# For each condition, 3,000 cells/well (96-well plate) were seeded, allowed to adhere overnight, treated for 2 hours, washed once with media and cultured for 72 hour in complete medium at physiologic pH. Cell viability was assessed with the MTT assay. All measurements were normalized to the media control (0 μM, pH 7.4), as 100% cell viability. Results are shown as mean ± SEM (n = 9–12). […]
# Figure 5 Effect of free peptides on cell viability. […] Cell viability was assessed with the MTT assay, and all measurements were normalized to the media control (0 μM, pH 7.4), as 100% cell viability. […]
# Cells were seeded in 96-well plates at a density of 3,000 cells/well and incubated overnight. […] Treatment solutions were collected and their pH values measured using a micro-combination pH probe (Microelectrodes, Inc.). […] Cell viability was determined after 72 hours using the colorimetric MTT assay. […] The resulting formazan crystals were solubilized in 200 μL DMSO and the absorbance measured at 580 nm using an Infinite 200 PRO microplate reader (Tecan). Cell viability was calculated against control cells treated with media at physiologic pH. […]
# Figure S1. […] Cell viability was assessed with the MTT assay. […] (B) After the 2-hour treatment, cells were detached and counted based on trypan blue uptake with an hemacytometer: % of intact cells corresponds to the number of cells not showing any dye uptake over the total number of cells. […]
# [3] = Chemical stability of pHLIP conjugates in cell media (HPLC, mass spectroscopy); type: physicochemical; conditions: 10 μM conjugate in cell media, 2 h at pH 5.0 and 37 °C, every peak checked by mass spectroscopy (Figure S2)
# Description: Figure S2. Chemical Stability of pHLIP conjugates. HPLC traces of 10 µM pHLIP-(KLAKLAK)2 (A)
# collected and checked by mass spectroscopy. In all cases, the conjugates were found intact
# (1 picture or pasted object on this page, not shown here)
smiles,measurement,setting,value
CC[C@H](C)[C@H](NC(=O)[C@@H]1CCCN1C(=O)[C@H](CC(N)=O)NC(=O)[C@H](CCC(N)=O)NC(=O)[C@H](CCC(=O)O)NC(=O)CNC(=O)CN)C(=O)N[C@@H](Cc1ccc(O)cc1)C(=O)N[C@@H](Cc1c[nH]c2ccccc12)C(=O)N[C@@H](C)C(=O)N[C@@H](CCCNC(=N)N)C(=O)N[C@@H](Cc1ccc(O)cc1)C(=O)N[C@@H](C)C(=O)N[C@@H](CC(=O)O)C(=O)N[C@@H](Cc1c[nH]c2ccccc12)C(=O)N[C@@H](CC(C)C)C(=O)N[C@@H](Cc1ccccc1)C(=O)N[C@H](C(=O)N[C@H](C(=O)N1CCC[C@H]1C(=O)N[C@@H](CC(C)C)C(=O)N[C@@H](CC(C)C)C(=O)N[C@@H](CC(C)C)C(=O)N[C@@H](CC(C)C)C(=O)N[C@@H](CC(=O)O)C(=O)N[C@@H](CC(C)C)C(=O)N[C@@H](C)C(=O)N[C@@H](CC(C)C)C(=O)N[C@@H](CC(C)C)C(=O)N[C@H](C(=O)N[C@@H](CC(=O)O)C(=O)N[C@@H](C)C(=O)N[C@@H](CC(=O)O)C(=O)N[C@@H](CCC(=O)O)C(=O)NCC(=O)N[C@H](C(=O)N[C@@H](CSSC[C@H](N)C(=O)N[C@@H](CCCCN)C(=O)N[C@@H](CC(C)C)C(=O)N[C@@H](C)C(=O)N[C@@H](CCCCN)C(=O)N[C@@H](CC(C)C)C(=O)N[C@@H](C)C(=O)N[C@@H](CCCCN)C(=O)N[C@@H](CCCCN)C(=O)N[C@@H](CC(C)C)C(=O)N[C@@H](C)C(=O)N[C@@H](CCCCN)C(=O)N[C@@H](CC(C)C)C(=O)N[C@@H](C)C(=O)N[C@@H](CCCCN)C(N)=O)C(=O)NCC(N)=O)[C@@H](C)O)C(C)C)[C@@H](C)O)[C@@H](C)O [pHLIP-(KLAKLAK)2],LDH release 2 and 24 hours after treatment,[1],no significant LDH release
same,cell growth inhibition (up to),"[2]; low pH (5.0), highest inhibition over the concentration range tested (up to 10 μM), 2 h treatment, 72 h recovery",up to 85%
same,IC50,"[2]; pH 5.0, 2 h treatment at 37 °C, 72 h recovery in complete medium at physiologic pH, sigmoidal dose-response fit, mean ± SEM, n = 9–12",1 µM
same,effect on cell viability at physiological pH,"[2]; pH 7.4, up to 10 μM, 2 h treatment, 72 h recovery",little to no significant decrease in cell viability
same,chemical stability (degradation products by HPLC or mass spectroscopy),[3],no degradation products
